The record followed here is ChEMBL document CHEMBL3085732, “Synthesis and pharmacological evaluation of aminothiazolomorphinans at the mu and kappa opioid receptors” (J Med Chem, 2013).

For the experiment, the species on record is Homo sapiens. Description: Selectivity ratio of Ki for human mu opioid receptor to Ki for human kappa opioid receptor.

Structures are written as SMILES.

Take `Oc1ccc2c(c1)[C@@]13CCCC[C@H]1[C@@H](C2)N(CC1CCC1)CC3` [BUTORPHAN]: the Ratio Ki was 2.9.
